The chains behind the UniProt entries cited, without tags or fusion partners. Where a name states a change or a piece, a line headed by the entry shows the natural chain unless it says otherwise.
UniProt Q99572: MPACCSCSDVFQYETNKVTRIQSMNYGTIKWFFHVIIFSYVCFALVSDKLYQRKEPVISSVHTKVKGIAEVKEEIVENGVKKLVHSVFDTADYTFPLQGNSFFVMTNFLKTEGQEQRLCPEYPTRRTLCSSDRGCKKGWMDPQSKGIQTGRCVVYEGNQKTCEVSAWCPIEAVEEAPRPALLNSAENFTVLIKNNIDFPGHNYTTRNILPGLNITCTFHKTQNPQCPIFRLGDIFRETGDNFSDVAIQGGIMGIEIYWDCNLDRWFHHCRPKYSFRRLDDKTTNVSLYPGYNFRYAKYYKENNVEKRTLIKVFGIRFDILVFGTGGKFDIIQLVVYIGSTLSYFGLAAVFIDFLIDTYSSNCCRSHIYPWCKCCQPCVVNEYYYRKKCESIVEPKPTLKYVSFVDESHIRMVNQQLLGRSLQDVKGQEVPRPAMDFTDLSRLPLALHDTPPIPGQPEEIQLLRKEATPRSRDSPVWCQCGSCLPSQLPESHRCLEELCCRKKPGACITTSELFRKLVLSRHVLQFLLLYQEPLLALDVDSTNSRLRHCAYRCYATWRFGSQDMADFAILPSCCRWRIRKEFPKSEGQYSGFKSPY
UniProt Q64663: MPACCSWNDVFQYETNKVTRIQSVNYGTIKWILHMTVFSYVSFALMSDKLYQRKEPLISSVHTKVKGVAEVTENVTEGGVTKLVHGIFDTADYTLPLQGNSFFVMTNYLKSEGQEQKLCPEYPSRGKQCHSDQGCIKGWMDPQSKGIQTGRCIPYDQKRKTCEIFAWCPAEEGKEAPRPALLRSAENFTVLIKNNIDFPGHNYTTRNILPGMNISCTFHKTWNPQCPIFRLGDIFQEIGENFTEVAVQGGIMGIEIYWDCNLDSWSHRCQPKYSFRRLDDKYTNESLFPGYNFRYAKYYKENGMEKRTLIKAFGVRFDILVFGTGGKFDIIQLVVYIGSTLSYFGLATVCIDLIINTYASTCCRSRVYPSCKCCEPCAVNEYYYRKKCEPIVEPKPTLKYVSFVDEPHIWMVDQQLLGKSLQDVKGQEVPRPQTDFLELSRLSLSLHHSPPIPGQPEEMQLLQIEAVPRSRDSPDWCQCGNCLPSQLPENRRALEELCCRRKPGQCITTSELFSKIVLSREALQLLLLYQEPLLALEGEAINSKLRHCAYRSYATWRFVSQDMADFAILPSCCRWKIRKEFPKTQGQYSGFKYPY

In patent US9464084B2, “P2X7 modulators” (Janssen Pharmaceutica NV, priority 2013, dated 2016):

Assays:
[1] = molecular target: T1, P2X7 (Homo sapiens (Human), UniProt Q99572); experiment: P2X7 antagonism in human whole blood (LPS + Bz-ATP induced IL-1β release, ELISA); type: cell-based; settings: LPS 30 ng/ml, Bz-ATP 1 mM
[2] = molecular target: T1, P2X7; experiment: Ca2+ flux (FLIPR) in 1321N1 cells expressing recombinant human P2X7 channel; type: cell-based; settings: 250 μM BzATP;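 further: Calcium-4 dye-loaded cells exposed to compound for 30 min before agonist addition, fluorescence change read 180 s after agonist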
[3] = molecular target: T1, P2X7; experiment: Radioligand binding, tritiated A-804598, human P2X7-1321N1 cell membranes; settings: 1 hour at 4° C.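 Further: ki obtained from the binding IC50 after correction for tracer concentration and tracer affinity.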
[4] = molecular target: T2, rat P2X7 (Rattus norvegicus (Rat), UniProt Q64663); experiment: Ca2+ flux (FLIPR) in 1321N1 cells expressing recombinant rat P2X7 channel; type: cell-based; settings: 250 μM BzATP;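 further: Calcium-4 dye fluorescence change read 180 s after agonist addition, following 30 min cell preincubation with test compound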
[5] = molecular target: T2, rat P2X7; experiment: Radioligand binding, tritiated A-804598, rat P2X7-1321N1 cell membranes; settings: 1 hour at 4° C.

Row | Compound | IC50 [1] [nM] | also measured
1 | CC1c2ncn(-c3ccc(F)cn3)c2CCN1C(=O)c1cccc(C(F)(F)F)c1Cl (stereo not drawn) [Example 11, (2-Chloro-3-(trifluoromethyl)phenyl)(1-(5-fluoropyridin-2-yl)-4-methyl-6,7-dihydro-1H-imidazo[4,5-c]pyridin-5(4H)-yl)methanone] | 1590 | IC50 [2]: 22.3 nM; Ki [3]: 126 nM; IC50 [4]: 671 nM
2 | O=C(c1cccc(C(F)(F)F)c1Cl)N1CCc2c(nnn2-c2ncccn2)C1 [Example 65, 5-{[2-Chloro-3-(trifluoromethyl)phenyl]carbonyl}-1-pyrimidin-2-yl-4,5,6,7-tetrahydro-1H-[1,2,3]triazolo[4,5-c]pyridine] | 79 | IC50 [4]: 8.7 nM
3 | COc1ccnc(-n2nnc3c2CCN(C(=O)c2cccc(C(F)(F)F)c2Cl)C3)c1 [Example 136, (2-Chloro-3-(trifluoromethyl)phenyl)(1-(4-methoxypyridin-2-yl)-6,7-dihydro-1H-[1,2,3]triazolo[4,5-c]pyridin-5(4H)-yl)methanone] | 63 | –
4 | CC1c2ncn(-c3ccccc3)c2CCN1C(=O)c1cccc(C(F)(F)F)c1Cl (stereo not drawn) [Example 12, (2-Chloro-3-(trifluoromethyl)phenyl)(4-methyl-1-phenyl-6,7-dihydro-1H-imidazo[4,5-c]pyridin-5(4H)-yl)methanone] | 631 | –
5 | C[C@@H]1c2ncn(-c3ccc(F)cn3)c2CCN1C(=O)c1cccc(C(F)(F)F)c1Cl (single isomer, unassigned) [Example 40, (R*)-(2-chloro-3-(trifluoromethyl)phenyl)(1-(5-fluoropyridin-2-yl)-4-methyl-6,7-dihydro-1H-imidazo[4,5-c]pyridin-5(4H)-yl)methanone] | 92 | Ki [5]: 7.8 nM; IC50 [2]: 4 nM; Ki [3]: 7.1 nM
6 | CC1c2nnn(-c3cnccn3)c2CCN1C(=O)c1cccc(C(F)(F)F)c1Cl (stereo not drawn) [Example 73, 5-{[2-Chloro-3-(trifluoromethyl)phenyl]carbonyl}-4-methyl-1-pyrazin-2-yl-4,5,6,7-tetrahydro-1H-[1,2,3]triazolo[4,5-c]pyridine] | 16 | –
7 | C[C@H]1c2nnn(-c3ncccn3)c2CCN1C(=O)c1cccc(C(F)(F)F)c1Cl (single isomer, unassigned) [Example 87, (4S*)-5-{[2-Chloro-3-(trifluoromethyl)phenyl]carbonyl}-4-methyl-1-pyrimidin-2-yl-4,5,6,7-tetrahydro-1H-[1,2,3]triazolo[4,5-c]pyridine] | 3310 | –
8 | C[C@@H]1c2ncn(-c3ccccn3)c2CCN1C(=O)c1cccc(C(F)(F)F)c1F (single isomer, unassigned) [Example 42, (4R*)-5-{[2-Fluoro-3-(trifluoromethyl)phenyl]carbonyl}-4-methyl-1-pyridin-2-yl-4,5,6,7-tetrahydro-1H-imidazo[4,5-c]pyridine] | 2510 | –
9 | C[C@H]1c2nnn(-c3cnccn3)c2CCN1C(=O)c1cccc(C(F)(F)F)c1Cl (single isomer, unassigned) [Example 75, (4 S*)-5-{[2-Chloro-3-(trifluoromethyl)phenyl]carbonyl}-4-methyl-1-pyrazin-2-yl-4,5,6,7-tetrahydro-1H-[1,2,3]triazolo[4,5-c]pyridine] | 13 | –
10 | CC1c2nnn(-c3ncccc3F)c2CCN1C(=O)c1cccc(C(F)(F)F)c1Cl (stereo not drawn) [Example 84, 5-{[2-Chloro-3-(trifluoromethyl)phenyl]carbonyl}-1-(3-fluoropyridin-2-yl)-4-methyl-4,5,6,7-tetrahydro-1H-[1,2,3]triazolo[4,5-c]pyridine] | 200 | –
11 | C[C@@H]1c2nnn(-c3cnccn3)c2CCN1C(=O)c1cccc(C(F)(F)F)c1Cl (single isomer, unassigned) [Example 74, (4R*)-5-{[2-Chloro-3-(trifluoromethyl)phenyl]carbonyl}-4-methyl-1-pyrazin-2-yl-4,5,6,7-tetrahydro-1H-[1,2,3]triazolo[4,5-c]pyridine] | 5010 | –
